# Reference: US8633025B2, “Generation of neuronal cells from embryonic stem cells” (Universite Libre de Bruxelles, priority 2007, dated 2014)
# Test system: ES cell-derived neural progenitors
# Conditions: compared with DDM
# Description: Experimental procedures were as described in Example 1. […] Ethanol was used as control.
# For long term pulse chase experiments, BrdU (Becton Dickinson) was added to the differentiation medium on the different days during 24 h at a final concentration of 10 μM. Cells were dissociated after 21 days of differentiation and plated on coated coverslips for an additional day. For short-term BrdU uptake experiments, BrdU was added to the differentiation medium during 1 hour prior to cell dissociation and replating.
# For BrdU detection, medium was removed and cells were rinsed with PBS then fixed for 30 min in 4% paraformaldehyde (PFA) in PBS, pH 7.4 at 4° C. PFA was removed and cells were rinsed three times with PBS. BrdU was unmasked using an antigen retrieval method: cells were boiled during 4×5 minutes in 10 mM citrate buffer (pH 6.0) and cooled down to room temperature during 20 minutes. Immunostaining was performed as described above using mouse anti-BrdU (1/50, Becton Dickinson) or rat anti-BrdU (1/250, Abcam) antibodies. Multiple labelling was performed sequentially as described above.
compound,measurement,value
CC1=C2C[C@H]3[C@@H](CC=C4C[C@@H](O)CC[C@@]43C)[C@@H]2CC[C@]12O[C@@H]1C[C@H](C)CN[C@H]1[C@H]2C [cyclopamine],Effect on proliferative or survival rates of the neural lineage,did not have any major effect
